What is called Kd is the concentration at which binding is half-saturated.

Protein sequences, listed by entry. Tags and fused reporters are not part of them. Lines headed by an entry give the natural chain unless they say otherwise; changes in a name come on top.
UniProt P07700: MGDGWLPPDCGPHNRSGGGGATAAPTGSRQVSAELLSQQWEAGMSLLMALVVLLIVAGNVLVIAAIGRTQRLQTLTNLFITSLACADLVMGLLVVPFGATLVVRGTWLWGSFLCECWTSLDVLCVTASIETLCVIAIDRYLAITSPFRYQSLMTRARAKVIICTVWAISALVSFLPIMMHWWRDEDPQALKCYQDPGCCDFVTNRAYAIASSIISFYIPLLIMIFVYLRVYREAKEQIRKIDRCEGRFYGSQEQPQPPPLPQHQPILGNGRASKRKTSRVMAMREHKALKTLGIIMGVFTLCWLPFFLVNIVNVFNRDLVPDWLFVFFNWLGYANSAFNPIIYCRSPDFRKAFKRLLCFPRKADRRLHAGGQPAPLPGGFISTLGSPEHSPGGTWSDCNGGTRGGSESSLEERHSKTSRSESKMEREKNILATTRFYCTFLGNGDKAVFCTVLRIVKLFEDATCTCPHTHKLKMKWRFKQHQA

In this assay the target is avi-β1AR-W (turkey β1-adrenergic receptor β1AR-MetΔ5, thermostabilised with E130W, N-terminal biotinylated avi-tag) (turkey) (UniProt P07700). Kind of assay: BLI; biotinylated avi-tagged receptor in LMNG immobilised on streptavidin biosensors; 500 μM salbutamol (partial agonist); mini-Gs in solution at a single concentration (1 or 2 μM); 20 mM TrisHCl pH 8.0, 150 mM NaCl, 15 mM MgCl2, 0.02% LMNG, 0.1% BSA; 25 °C; 1:1 monophasic local partial fit; one of n = 3 tips. (In general: BLI is a label-free optical method that tracks binding on a fibre tip over time.)

In turn, mini-Gs 393 C96A (domain or fragment) yielded a Kd of 1470 nM.
